Data published in ChEMBL document CHEMBL4602733 (J Med Chem, 2020).

Sequences of proteins named here, by UniProt entry; tags and fusion partners are left off. A change or cut given only in a name is not applied to a line headed by its entry.
UniProt Q9Y5N1: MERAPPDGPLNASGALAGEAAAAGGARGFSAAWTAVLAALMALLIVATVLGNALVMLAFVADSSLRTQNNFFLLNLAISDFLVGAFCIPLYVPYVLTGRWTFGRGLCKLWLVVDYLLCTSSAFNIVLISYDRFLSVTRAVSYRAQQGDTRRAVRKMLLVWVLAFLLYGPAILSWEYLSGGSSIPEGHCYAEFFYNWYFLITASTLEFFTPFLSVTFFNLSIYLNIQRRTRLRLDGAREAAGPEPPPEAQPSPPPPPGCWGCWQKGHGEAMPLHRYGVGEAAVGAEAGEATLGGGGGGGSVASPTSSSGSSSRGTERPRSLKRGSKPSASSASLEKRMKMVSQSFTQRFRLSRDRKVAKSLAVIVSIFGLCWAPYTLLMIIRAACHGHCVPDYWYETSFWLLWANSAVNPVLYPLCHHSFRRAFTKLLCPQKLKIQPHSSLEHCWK

Assays:
[1] = target: T1, Histamine H3 receptor (Homo sapiens, UniProt Q9Y5N1); test: biochemical
[2] = target: T1, Histamine H3 receptor

NC(=NCc1ccc(Cl)cc1)SCCCc1cnc[nH]1 [CLOBENPROPIT]
Ki [1]: 2.51 nM
Ki [2]: 0.251 nM
